# PubChem BioAssay AID504357 (The Scripps Research Institute Molecular Screening Center, 2011)
# Protein sequences, listed by entry. Tags and fused reporters are not part of them.
# UniProt P35372, whole entry, looked up: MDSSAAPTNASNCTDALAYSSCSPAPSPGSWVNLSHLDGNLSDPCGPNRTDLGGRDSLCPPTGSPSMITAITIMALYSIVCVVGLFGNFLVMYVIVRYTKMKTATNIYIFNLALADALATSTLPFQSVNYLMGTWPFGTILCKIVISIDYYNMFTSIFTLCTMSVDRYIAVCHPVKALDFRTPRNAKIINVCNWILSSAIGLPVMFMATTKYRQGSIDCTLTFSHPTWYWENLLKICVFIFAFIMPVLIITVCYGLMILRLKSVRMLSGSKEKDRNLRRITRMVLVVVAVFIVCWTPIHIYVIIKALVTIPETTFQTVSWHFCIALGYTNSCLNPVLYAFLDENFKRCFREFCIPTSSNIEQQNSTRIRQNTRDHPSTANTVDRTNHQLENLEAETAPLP
# UniProt P41143, whole entry, looked up: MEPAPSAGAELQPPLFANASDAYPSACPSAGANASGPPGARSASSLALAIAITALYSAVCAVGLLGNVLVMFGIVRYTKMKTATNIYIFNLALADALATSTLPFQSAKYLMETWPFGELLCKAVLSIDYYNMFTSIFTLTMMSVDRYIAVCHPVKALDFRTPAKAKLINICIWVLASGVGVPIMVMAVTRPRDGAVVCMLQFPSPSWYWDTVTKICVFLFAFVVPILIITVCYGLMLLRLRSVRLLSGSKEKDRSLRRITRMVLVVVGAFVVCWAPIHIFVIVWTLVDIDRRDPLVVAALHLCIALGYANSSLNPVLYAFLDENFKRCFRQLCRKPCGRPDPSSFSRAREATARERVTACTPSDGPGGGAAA
# The list shows a part of the results, in another mix than the full data. Active and inactive are the calls of the source. No stated cut-off is given here; in the data, active means inhibition above about 22% (passing the limit was not always enough); inactive means the rest.
# Target: Mu-type opioid receptor (Homo sapiens) + Delta-type opioid receptor (Homo sapiens) (UniProt P35372+P41143)
# Assay: inverse agonists of MOR-DOR heterodimerization, primary screen, cell-based, luminescence (AID 504357);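 further: 0% = cells with DMSO and 100% = wells without cells with DMSO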
# Settings: cell-based MOR-DOR heterodimer luminescence, inverse agonism; at 9.3 µM; stronger effect = higher value
row,SMILES,inhibition
1,O=C(Cn1c(SCC(=O)N2CCc3ccccc32)nc2ccccc21)NC1CCCC1,inactive: 3.99%
2,Cc1ccc(NC(=O)Cn2cnc3c(NCc4ccccc4)ncnc32)cc1C,inactive: 9.81%
3,Cn1c(=O)c2ncn(CC(=O)NCCOCc3ccccc3Cl)c2n(C)c1=O,inactive: 16.3%
4,O=C(Cn1c(-c2ccccc2Cl)nc2ccccc21)Nc1cccc(Cl)c1,inactive: 3.64%
5,Cn1c(=O)c2c(ncn2CC(=O)Nc2ccccc2Sc2ccccc2)n(C)c1=O,inactive: 18.7%
6,Cn1c(=O)c2c(ncn2CC(=O)Nc2ccc(Cl)cc2Cl)n(C)c1=O,inactive: 11%
7,COc1ccccc1N1CCN(C(=O)Cn2cnc3c2c(=O)n(C)c(=O)n3C)CC1,inactive: 17.2%
8,Cn1c(=O)[nH]c(=O)c2c1nc(CN1CCN(c3cccc(Cl)c3)CC1)n2CCN1CCOCC1,inactive: -2.72%
9,CSc1nc(N)nc2c1ncn2CC(=O)NCC1CCCO1 (centres undefined),inactive: 19.8%
10,CCOCN(C(=O)Cn1c(COC)nc2ccccc21)c1c(C)cccc1CC,inactive: 9.44%
11,Cc1ccc2c(c1)C1C[N+](C)(CC(=O)Nc3ccccc3Cl)CCC1N2C(=O)c1ccccc1Cl (centres undefined),inactive: 12.9%
12,Nc1cccc([As](=O)(O)c2ccccc2)c1,inactive: 16.5%
13,Cc1ccc(S(=O)(=O)N2CCN(C(=O)Cn3cnc4c3c(=O)n(C)c(=O)n4C)CC2)cc1C,inactive: 3.59%
14,Cc1ccc2c(c1)C1CN(C)CCC1N2C(=O)Cn1nnc(-c2ccccc2F)n1 (centres undefined),inactive: 6.02%
15,Cn1c(CNc2nc3ccccc3n2CCN2CCCCC2)nc2ccccc21,inactive: 0.23%
16,CCC(=O)N1CCn2c1nc1ccccc12,inactive: 9.93%
17,NC(=O)Cn1c(S(=O)(=O)Cc2ccccc2)nc2ccccc21,inactive: 11.9%
18,O=[As](O)(c1cccs1)c1cccs1,inactive: 17.3%
19,CCc1ccccc1NC(=O)CSc1nc2ccccc2n1CC(=O)N1CCCC1,inactive: 1.89%
20,Cc1ccc(OCC(=O)OC2CN3CCC2CC3)cc1 (centres undefined),inactive: 9.21%
21,C[C@H](O)[C@@H]1C(=O)N2CCc3ccc(N4CCN(C)CC4)cc3[C@@H]2C[C@@H]1N(C)C(=O)Nc1cc(Cl)cc(Cl)c1,inactive: 6.34%
22,Cc1ccc(C(=O)N(C)c2ccc(OCC(=O)N3c4ccc(C)cc4C4CN(C)CCC43)cc2)cc1 (centres undefined),inactive: 10.3%
23,COC(=O)[C@H](Cc1ccc(O)cc1)NC(=O)Cn1cnc2c(OCc3ccccc3)ncnc21,inactive: 5.03%

row,SMILES,inhibition
1,CC(C)C[C@H](NC(=O)N1CCn2c1nc1ccccc12)C(=O)NCc1ccco1,inactive: 10.5%
2,Cc1ccc2c(c1)C1CN(C)CCC1N2C(=O)c1ccccc1NS(=O)(=O)c1ccc(F)cc1C (centres undefined),inactive: -0.02%
3,O=P1(Nc2ccc(Br)cn2)COc2ccccc2OC1,inactive: 6.34%
4,NS(=O)(=O)c1cccc(NC(=O)COC(=O)C(O)(c2ccccc2)c2ccccc2)c1,inactive: 3.34%
5,Cc1cc(NC(=O)Cn2cnc3c2c(=O)n(C)c(=O)n3C)n(-c2ccccc2)n1,inactive: 0.81%
6,O=C(NCCn1c(-c2ccncc2)nc2ccccc21)[C@H]1CCCN1c1nc(CN2CCCCC2)cs1,inactive: -1.68%
7,CC(C)N(C(=O)Cn1c(SCC(=O)NCc2ccc3c(c2)OCO3)nc2ccccc21)C(C)C,inactive: 15.7%
8,O=C1CC(N2CCC(n3c(=O)[nH]c4ccccc43)CC2)C(=O)N1c1ccc(F)cc1 (centres undefined),inactive: 10.8%
9,CC(c1ccccc1)N1CCn2c(nc3cc(NC(=O)c4cccs4)ccc32)C1 (centres undefined),inactive: 7.82%
10,CN(C)CCn1cnc2c1c(=O)[nH]c(=O)n2Cc1ccccc1,inactive: 10.9%
11,O=S(=O)(Nc1ccc2c(c1)nc1n2CCN(Cc2ccccc2)C1)c1ccc(Cl)cc1,inactive: -0.26%
12,O=C(Cn1cnc2ccccc21)N/N=C/c1cccs1,inactive: 0.33%
13,CCc1ccccc1NC(=O)CSc1nc2ccccc2n1CC(=O)N(C)C,inactive: 18.8%
14,N=c1n(CCN2CCOCC2)c2ccccc2n1Cc1ccccc1Br,inactive: 20%
15,Cc1ccc2c(c1)C1CN(C)CCC1N2C(=O)/C(C#N)=C/c1ccc2c(c1)OCO2 (centres undefined),inactive: 2.18%
16,COC(=O)CSc1nc2ccccc2n1CC(=O)N(C(C)C)C(C)C,inactive: 6.47%
17,Cc1ccc2c(c1)C1CN(C)CCC1N2C(=O)c1ccc(Br)o1 (centres undefined),inactive: 6.5%
18,CCN(CC)C(=O)N1CCn2c(nc3ccccc32)C1,inactive: 2.41%
19,Cn1c(=O)[nH]c(=O)c2c1nc(N1CCOCC1)n2CCN1CCOCC1,inactive: 17.6%
20,O=P1(Nc2ncccn2)COc2ccccc2OC1,inactive: 0.03%
21,NNC(=O)Cn1c(COc2ccc(Cl)cc2)nc2ccccc21,inactive: -23.5%
22,NC(=O)CC(NC(=O)Cc1cccc2ccccc12)c1ccc(NC2CCN(Cc3ccccc3)CC2)c([N+](=O)[O-])c1 (centres undefined),inactive: 1.44%
23,N=c1n(CCN2CCOCC2)c2ccccc2n1CC(O)COc1ccccc1 (centres undefined),inactive: 20.6%

row,SMILES,inhibition
1,COC(CNC(=O)CC1C(=O)N(Cc2ccccc2)C(C)c2nc3ccccc3n21)OC (centres undefined),inactive: 9.47%
2,COC(=O)[C@@H](Cc1ccccc1)NC(=O)Cn1cnc2c(SC)nc(N)nc21,inactive: 13%
3,Fc1ccc2c(c1)nnn2C1CCN(Cc2nnnn2C2CCCCC2)CC1,inactive: 3.62%
4,Cc1nc2ccccc2n1CC(=O)NCc1ccccc1,inactive: 1.64%
5,CCOC(=O)C1CCN(C(=O)CC2C(=O)N(Cc3ccccc3)C(C)c3nc4ccccc4n32)CC1 (centres undefined),inactive: 21.1%
6,Cn1c(=O)c2c(ncn2CC(=O)N/N=C/c2cn[nH]c2-c2ccc(F)cc2)n(C)c1=O,inactive: -2.36%
7,Cn1c(=O)c2c(ncn2CC(=O)N/N=C/C=C/c2ccco2)n(C)c1=O,inactive: 15.8%
8,CCOC(=O)CNC(=S)N1CCn2c(nc3ccccc32)C1,inactive: 15.9%
9,CC(C)Sc1nc2ccccc2n1CC(=O)NCc1ccc2c(c1)OCO2,inactive: 1.11%
10,Cn1c(=O)n(Cc2ccc(F)cc2)c(=O)c2c1nc1n2CCN1Cc1ccco1,inactive: -6.67%
11,COc1cccc(C(=O)CSc2nc3ccccc3n2CC(=O)N(C(C)C)C(C)C)c1,inactive: 15.5%
12,Nc1ccccc1[As](=O)(O)c1ccccc1,inactive: 10%
13,O=C(O)COc1ccc([As](=O)(O)O)cc1[N+](=O)[O-],inactive: 5.63%
14,O=C(Cn1cnc2ccccc21)N/N=C/c1ccc([N+](=O)[O-])cc1,inactive: -31.9%
15,NC(=O)Cn1c(-c2nonc2N)nc2ccccc21,inactive: -1.32%
16,COCCN1CCn2c(nc3cc(NC(=O)NC4CCCCC4)ccc32)C1,inactive: -6.11%
17,CCOC(=O)c1ccccc1NC(=O)Cn1cnc2c1c(=O)n(C)c(=O)n2C,inactive: -7.76%
18,Nc1nonc1-c1nc2ccccc2n1CC(=O)N/N=C/c1ccc(-c2cccc(C(=O)O)c2)o1,inactive: 11.3%
19,Cc1ccc2c(c1)C1CN(C)CCC1N2C(=O)c1cn(-c2ccccc2)nc1-c1ccccc1 (centres undefined),inactive: -3.71%
20,CCc1nc2ccccc2n1CC(=O)Nc1cc(C)on1,inactive: 4.44%
21,CC(C)c1ccc(NC(=O)C2CC(=O)Nc3nc4ccccc4n32)cc1 (centres undefined),inactive: 5.08%
22,O=P(Nc1nccs1)(Oc1ccccc1)Oc1ccccc1,inactive: -2.57%
23,Cc1ccccc1NC(=O)Cn1c(NCC(C)O)nc2ccccc21 (centres undefined),inactive: 13%

row,SMILES,inhibition
1,CCN(CC)CCn1c(C)nc2ccccc21,inactive: 12.8%
2,Cn1c(=O)c2c(ncn2CC(=O)N2CCN(S(=O)(=O)c3ccc(Cl)cc3)CC2)n(C)c1=O,inactive: -2.29%
3,Cc1nc2ccccc2n1CC(=O)N/N=C/c1cccnc1,inactive: 7.06%
4,C/C(=N\NC(=O)Cn1c(-c2ccccn2)nc2ccccc21)c1cccc(O)c1,inactive: 9.41%
5,CCN1CCC(Nc2ccnc3cc(Cl)ccc23)CC1,inactive: 8.56%
6,CN(C(=O)Cn1c(Cl)nc2c1c(=O)n(C)c(=O)n2C)C1CCS(=O)(=O)C1 (centres undefined),inactive: 1.49%
7,CCOP1(=S)c2c(C)nn(CCC#N)c2N=C(c2ccccc2F)N1C (centres undefined),inactive: 15.1%
8,Cn1c(=O)n(CC(=O)Nc2ccc(F)cc2)c2ccccc21,inactive: 5.94%
9,CCC(C)[C@H](NC(=O)N1CCn2c1nc1ccccc12)C(=O)NCCc1ccc(OC)c(OC)c1 (some centres undefined),inactive: 6.04%
10,O=C(Nc1nc2ccccc2n1CCN1CCOCC1)c1ccc(Cn2cc([N+](=O)[O-])cn2)o1,inactive: 8.65%
11,N#Cc1ccc(NC(=O)Cn2c3[n+](c4ccc(C(F)(F)F)cc42)CCCCC3)cc1,inactive: 8.86%
12,O=C1NCN(c2ccccc2)C12CCN(c1nnnn1-c1ccccc1)CC2,inactive: -1.61%
13,CN(C)C(=O)Cn1c(SCC(=O)N2CCCc3ccccc32)nc2ccccc21,inactive: -3.23%
14,COC(=O)[C@H](CCSC)NC(=O)Cn1cnc2c(SC)nc(N)nc21,inactive: 25%
15,O=C(Cn1cnc2ccccc21)N1CCc2ccccc21,inactive: -8.98%
16,CS(=O)(=O)c1cc([N+](=O)[O-])c2no[n+]([O-])c2c1,inactive: -15.7%
17,Cn1c(=O)c2c(ncn2CC(=O)Nc2ccc3c(c2)OCO3)n(C)c1=O,inactive: -9.45%
18,Cc1ccc(/C=N\NC(=O)Cn2c(C)nc3ccccc32)o1,inactive: 9.17%
19,CC(C(O)c1ccccc1)N(C)CCn1cnc2c1c(=O)n(C)c(=O)n2C (centres undefined),inactive: 16.9%
20,C[C@H](NC(=O)N1CCn2c1nc1ccccc12)C(=O)NCc1ccc2c(c1)OCO2,inactive: 12.1%
